From patent publication US20050215470A1 (Amgen, published 2005)
Non-standard residues stand in square brackets, D forms with d. No end group written: not given here. Gly(cPent) = N[C@H](C(=O)O)C1CCCC1; Hyp = O=C(O)[C@@H]1C[C@@H](O)CN1; dTic = O=C(O)[C@H]1Cc2ccccc2CN1

Biological target: T1, human bradykinin B1 receptor (human, UniProt P46663 1-353)
T1 construct: whole, on cells; For the IC50 values the receptor was stably expressed in a CHO D-/hB1/Aequorin cell line; also called hB1
T1 sequence (looked up): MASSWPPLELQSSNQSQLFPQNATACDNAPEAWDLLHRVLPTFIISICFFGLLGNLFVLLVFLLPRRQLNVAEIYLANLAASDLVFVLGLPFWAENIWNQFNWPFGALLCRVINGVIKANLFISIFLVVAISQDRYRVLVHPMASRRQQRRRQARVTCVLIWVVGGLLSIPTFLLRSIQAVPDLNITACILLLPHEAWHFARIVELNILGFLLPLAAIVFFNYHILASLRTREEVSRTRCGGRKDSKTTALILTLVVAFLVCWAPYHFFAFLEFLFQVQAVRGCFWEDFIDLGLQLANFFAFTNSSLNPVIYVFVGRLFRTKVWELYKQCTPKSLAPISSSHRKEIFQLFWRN
Assay: cell-based or functional assay

IC50 in the hB1 aequorin assay: 3.2 nM
Binder: Ac-KKRP[Hyp]G[Gly(cPent)]S[dTic][Gly(cPent)] [SEQ ID NO: 37]
